Earlier results as cited in patent US10335367B2, “Use of selected anticholinergic zwitterions” (Bodor Laboratories, Inc., priority 2015, dated 2019).
Read-outs that look alike come from different tables or passages of the source.

Tested on: rabbit eyes
Conditions: cited from earlier work; for pupil dilation in the contralateral, untreated eye: administered in one eye

C[N+]1(CC(=O)[O-])CCC(OC(=O)[C@](O)(c2ccccc2)C2CCCC2)C1 (stereo partly shown)
pupil dilation in the contralateral, untreated eye: no pupil dilation in the contralateral untreated eye | pupil dilation in the contralateral, untreated eye (listed as compound (ii)): did not cause pupil dilation in the contralateral, untreated eye | irritation reactions (eye-closing, lacrimation, mucous discharge) (rabbit, in vivo): not cause any observable irritation reactions | mydriatic activity in rabbit eyes (topical administration): local mydriatic activity after topical administration but only with a short duration of action
